Data: BindingDB's records for doi:10.1021/jm060807n (Universite Montpellier Ii, 2006)

The chains behind the UniProt entries cited, without tags or fusion partners. Where a name states a change or a piece, a line headed by the entry shows the natural chain unless it says otherwise.
UniProt Q9D6N1: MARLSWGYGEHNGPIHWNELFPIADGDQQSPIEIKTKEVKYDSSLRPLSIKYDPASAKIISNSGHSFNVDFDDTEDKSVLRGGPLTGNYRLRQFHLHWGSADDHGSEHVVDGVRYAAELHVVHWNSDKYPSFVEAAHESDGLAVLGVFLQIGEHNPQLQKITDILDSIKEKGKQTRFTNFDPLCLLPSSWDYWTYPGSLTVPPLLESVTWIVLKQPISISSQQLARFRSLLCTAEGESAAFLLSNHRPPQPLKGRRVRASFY

Target: Carbonic anhydrase 13 (Mus musculus, UniProt Q9D6N1)

Compound: CC(=O)/N=c1\sc(S(N)(=O)=O)nn1C
- Ki: 19 nM
